# Values of other authors, collected in patent US10195187B2, “Oxybutynin-xanomeline transdermal therapeutic system combinations” (Chase Pharmaceuticals Corporation, priority 2015, dated 2019).
# Tested on: muscarinic receptors
# Settings: oral and iontophoretic patch administration; cited from earlier work
structure (smiles),measurement,value
"CCN(CC)CC#CCOC(=O)C(O)(c1ccccc1)C1CCCCC1 (stereo not shown) [oxybutynin, 4-diethylaminobut-2-ynyl 2-cyclohexyl-2-hydroxy-2-phenylethanoate]",effectiveness relative to other muscarinic antagonists in combination with muscarinic agonists,less effective than the other muscarinic antagonists
